Measured values from patent US10669246B2, “Benzothiazol compounds and methods using the same for treating neurodegenerative disorders” (1ST Biotherapeutics, Inc., priority 2017, dated 2020).

Protein sequences, listed by entry. Tags and fused reporters are not part of them.
UniProt P00519, whole entry: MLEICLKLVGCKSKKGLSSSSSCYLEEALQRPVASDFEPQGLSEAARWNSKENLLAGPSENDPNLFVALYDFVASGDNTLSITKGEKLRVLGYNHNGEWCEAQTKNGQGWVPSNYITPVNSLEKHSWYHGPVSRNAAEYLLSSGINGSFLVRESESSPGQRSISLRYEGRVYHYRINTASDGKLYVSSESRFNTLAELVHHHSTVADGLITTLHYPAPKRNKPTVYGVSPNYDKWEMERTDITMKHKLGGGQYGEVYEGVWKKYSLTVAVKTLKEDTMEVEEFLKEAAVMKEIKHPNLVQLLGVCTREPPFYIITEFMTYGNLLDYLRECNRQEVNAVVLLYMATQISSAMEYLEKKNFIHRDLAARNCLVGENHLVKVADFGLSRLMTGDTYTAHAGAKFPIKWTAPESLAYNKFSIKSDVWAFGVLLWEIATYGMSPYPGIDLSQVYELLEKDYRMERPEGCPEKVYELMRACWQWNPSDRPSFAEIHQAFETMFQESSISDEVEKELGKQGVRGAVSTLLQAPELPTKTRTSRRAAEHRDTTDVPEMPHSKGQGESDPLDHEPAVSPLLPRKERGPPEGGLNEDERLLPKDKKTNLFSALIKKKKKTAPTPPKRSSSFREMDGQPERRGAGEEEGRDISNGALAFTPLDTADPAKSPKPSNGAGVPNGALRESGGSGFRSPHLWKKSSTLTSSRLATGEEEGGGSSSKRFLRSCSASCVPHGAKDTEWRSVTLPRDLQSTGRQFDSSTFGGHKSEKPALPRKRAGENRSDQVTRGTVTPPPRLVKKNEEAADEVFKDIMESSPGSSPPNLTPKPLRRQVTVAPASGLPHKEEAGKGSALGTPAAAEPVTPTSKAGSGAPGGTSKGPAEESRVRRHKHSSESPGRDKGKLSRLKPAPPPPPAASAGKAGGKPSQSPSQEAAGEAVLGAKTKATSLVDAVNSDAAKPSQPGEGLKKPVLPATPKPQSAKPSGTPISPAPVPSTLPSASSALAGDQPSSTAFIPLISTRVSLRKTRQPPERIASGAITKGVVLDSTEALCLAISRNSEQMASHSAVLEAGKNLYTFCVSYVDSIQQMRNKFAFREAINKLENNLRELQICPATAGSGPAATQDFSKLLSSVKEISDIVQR

Biological target: His-tagged recombinant human ABL1 (Homo sapiens (Human), UniProt P00519)
Experiment: c-abl kinase assay (ADP-Glo)
Details: read-out: c-abl-IC50; Table 2

SMILES	IC50
Cc1ccc2c(ccn2COCC[Si](C)(C)C)c1-c1ccc2sc(NC(=O)[C@@H]3C[C@@H]3F)nc2c1 [Example 25, (1S,2S)-2-fluoro-N-(5-(5-methyl-1-((2-(trimethylsilyl)ethoxy)methyl)-1H-indol-4-yl)benzo[d]thiazol-2-yl)cyclopropane-1-carboxamide]	> 2000 nM
Cc1cc(CO)ncc1-c1ccc2sc(NC(=O)[C@@H]3C[C@@H]3F)nc2c1 [Example 29, (1S,2S)-2-fluoro-N-(5-(6-(hydroxymethyl)-4-methylpyridin-3-yl)benzo[d]thiazol-2-yl)cyclopropane-1-carboxamide]	> 2000 nM
Cc1ccc2[nH]ccc2c1-c1ccc2sc(NC(=O)[C@@H]3C[C@@H]3F)nc2c1 [Example 31, (1S,2S)-2-fluoro-N-(5-(5-methyl-1H-indol-4-yl)benzo[d]thiazol-2-yl)cyclopropane-1-carboxamide]	> 2000 nM
Cc1cccc(F)c1-c1ccc2sc(NC(=O)[C@H]3C[C@H]3CO)nc2c1 [Example 33, (1S,2R)-N-(5-(2-fluoro-6-methylphenyl)benzo[d]thiazol-2-yl)-2-(hydroxymethyl)cyclopropane-1-carboxamide]	> 2000 nM
CNC[C@@H]1C[C@@H]1C(=O)Nc1nc2ccc(-c3c(C)cccc3F)cc2s1 [Example 71, N-(6-(2-fluoro-6-methylphenyl)benzo[d]thiazol-2-yl)-2-((methylamino)methyl)cyclopropane-1-carboxamide]	> 2000 nM

More lines, now with the values ahead:

IC50	SMILES
> 10000 nM	Cc1ccncc1-c1ccc2sc(NC(=O)C3CC3)nc2c1 [Example 7, N-(5-(4-methylpyridin-3-yl)benzo[d]thiazol-2-yl)cyclopropanecarboxamide]
> 2000 nM	CC(=O)c1cc(C)c(-c2ccc3sc(NC(=O)[C@@H]4C[C@@H]4F)nc3c2)cn1 [Example 21, (1S,2S)-N-(5-(6-acetyl-4-methylpyridin-3-yl)benzo[d]thiazol-2-yl)-2-fluorocyclopropane-1-carboxamide]
> 2000 nM	Cc1ccncc1-c1ccc2nc(N)sc2c1 [Example 27, 6-(4-methylpyridin-3-yl)benzo[d]thiazol-2-amine]
> 2000 nM	Cc1cc(C(C)O)ncc1-c1ccc2sc(NC(=O)[C@@H]3C[C@@H]3F)nc2c1 (stereo partly drawn) [Example 28, (1S,2S)-2-fluoro-N-(5-(6-(1-hydroxyethyl)-4-methylpyridin-3-yl)benzo[d]thiazol-2-yl)cyclopropane-1-carboxamide]
> 2000 nM	Cc1cccc(F)c1-c1ccc2sc(NC(=O)C3CC3)nc2c1 [Example 30, N-(5-(2-fluoro-6-methylphenyl)benzo[d]thiazol-2-yl)cyclopropanecarboxamide]
> 10000 nM	CNc1nc2ccc(-c3cnccc3C)cc2s1 [Example 53, N-methyl-6-(4-methylpyridin-3-yl)benzo[d]thiazol-2-amine]
> 10000 nM	Cc1ccncc1-c1ccc2c(c1)sc(=N)n2C [Example 54, 3-methyl-6-(4-methylpyridin-3-yl)benzo[d]thiazol-2(3H)-imine]
13.3 nM	Cc1cc(F)ncc1-c1ccc2nc(NC(=O)[C@@H]3C[C@@H]3F)sc2c1 [Example 120, (1S,2S)-2-fluoro-N-(6-(6-fluoro-4-methylpyridin-3-yl)benzo[d]thiazol-2-yl)cyclopropane-1-carboxamide]
